The source of these data is patent US8623906B2, “Carboxy isatin hydrazones and their esters as Shp2 inhibitors” (H. Lee Moffitt Cancer Center and Research Institute, Inc., priority 2009, dated 2014).

The test system of assay [1] is GST-Shp2 PTP domain protein. Type of assay: biochemical. As to the method:
All reactions were monitored by thin layer chromatography (TLC) or ^1H NMR. Some products, which could not be purified by simply washing, were purified by Flashmaster chromatography. […] After the purity and structure were confirmed, samples were tested for IC50 by DiFMUP assay, seen in Table 1, appended.
Curve fitting and IC50 were obtained using the GraphPad Prism program (GraphPad Software).

In assay [2] the test system is His-tagged Shp2 (amino acids 1-525).
Assay [3] has as its target non-fusion Shp2 PTP protein.

One may read the IC50 as the concentration needed to halve the response being measured. A high value points to a need for much substance. Broadly, the Kd is a measure of binding affinity in units of concentration. Broadly, the Ki is the equilibrium dissociation constant of an inhibitor or competing ligand from its target. A high value points to lower affinity. In turn, `O=C1Nc2ccc(S(=O)(=O)NCc3ccc(F)cc3)cc2/C1=N/Nc1cccc(C(=O)O)c1` [SPI-112, (Z)-3-(2-(5-(N-(4-fluorobenzyl)sulfamoyl)-2-oxoindolin-3-ylidene)hydrazinyl)benzoic acid] came in with an IC50 in assay [1] of 1 µM. For the same compound, in assay [2], the “association rate Ka” value is 22400 M⁻¹ s⁻¹ and the “dissociation rate Kd” value was determined as 0.029 s⁻¹. The Kd in assay [2] (read-out: kinetic constant (KD)) was 1.3 µM. Also, affinity in assay [3] was put at a Ki of 0.8 µM.
